Measurements as given in PubChem BioAssay AID1671463 (Sanford-Burnham Center for Chemical Genomics, 2021).
This is a selection; strong and weak results do not stand in their true shares. Calls of active or inactive are those of the source. No stated cut-off is given here; in the data, active means activation above about 40%; inactive means the rest.

Amino acid sequences for entries named in this document (tags omitted).
UniProt P16066, whole entry: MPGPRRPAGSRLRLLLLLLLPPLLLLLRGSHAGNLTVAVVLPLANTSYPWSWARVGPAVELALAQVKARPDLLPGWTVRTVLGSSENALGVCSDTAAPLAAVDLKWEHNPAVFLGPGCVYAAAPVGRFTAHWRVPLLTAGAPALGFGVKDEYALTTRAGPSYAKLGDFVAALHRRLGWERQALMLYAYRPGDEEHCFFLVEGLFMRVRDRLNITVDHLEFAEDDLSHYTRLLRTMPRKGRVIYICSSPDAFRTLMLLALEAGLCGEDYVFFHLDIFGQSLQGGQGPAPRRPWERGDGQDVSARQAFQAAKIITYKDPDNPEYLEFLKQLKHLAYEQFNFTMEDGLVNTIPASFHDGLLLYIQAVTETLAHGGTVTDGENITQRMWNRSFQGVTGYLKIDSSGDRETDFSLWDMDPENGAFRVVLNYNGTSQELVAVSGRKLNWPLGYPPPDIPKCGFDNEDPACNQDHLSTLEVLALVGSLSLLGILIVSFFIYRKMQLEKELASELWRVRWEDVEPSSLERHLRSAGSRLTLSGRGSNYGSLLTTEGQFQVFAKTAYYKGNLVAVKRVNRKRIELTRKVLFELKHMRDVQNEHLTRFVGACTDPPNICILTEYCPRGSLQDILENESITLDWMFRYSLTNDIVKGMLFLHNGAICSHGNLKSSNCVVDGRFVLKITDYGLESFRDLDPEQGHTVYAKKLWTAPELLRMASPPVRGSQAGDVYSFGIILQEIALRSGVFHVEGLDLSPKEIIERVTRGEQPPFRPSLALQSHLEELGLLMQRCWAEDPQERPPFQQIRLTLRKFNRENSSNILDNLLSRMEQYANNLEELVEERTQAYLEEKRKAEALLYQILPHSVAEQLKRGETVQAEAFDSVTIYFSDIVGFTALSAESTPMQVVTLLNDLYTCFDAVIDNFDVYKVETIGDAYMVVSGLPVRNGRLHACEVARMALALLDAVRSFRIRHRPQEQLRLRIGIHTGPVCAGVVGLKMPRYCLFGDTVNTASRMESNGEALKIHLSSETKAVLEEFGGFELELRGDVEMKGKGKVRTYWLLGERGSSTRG

molecular target: Atrial natriuretic peptide receptor 1 (Homo sapiens) (UniProt P16066); assay: GC-A stimulated cGMP production enhancers – HEK293 GC-A cells, cGMP TR-FRET, EC30 ANP, primary screen (AID 1671463); settings: at 10 µM, hits give high values, 0% at EC30 ANP, 100% saturating ANP

SMILES | activation
COc1ccccc1OP(C)(=O)Nc1c(C)cccc1C (stereo not given) | inactive: -5.89%
CCCOc1ccc(NP(C)(=O)Oc2ccc(Cl)cc2)cc1 (stereo not given) | inactive: 0.16%
CP(=O)(Nc1ccc(SC(F)(F)F)cc1)Oc1ccccc1 (stereo not given) | inactive: 2.56%
COc1ccc(-c2ccccn2)cc1.O=[N+]([O-])c1cc([N+](=O)[O-])c(O)c([N+](=O)[O-])c1 | inactive: 2.47%
O=[N+]([O-])c1cc([N+](=O)[O-])c(-n2nnc3ccccc32)c([N+](=O)[O-])c1 | inactive: 0.83%
CN(Cc1cccnc1)C(=O)COc1ccc(Cl)c(Cl)c1.O=[N+]([O-])c1cc([N+](=O)[O-])c(O)c([N+](=O)[O-])c1 | inactive: 0.54%
O=[N+]([O-])c1cc([N+](=O)[O-])c(-c2cnn(-c3ccccc3)c2)c([N+](=O)[O-])c1 | inactive: -3.13%
Cc1nc2ccc3ccccc3c2s1.O=[N+]([O-])c1cc([N+](=O)[O-])c(O)c([N+](=O)[O-])c1 | inactive: -0.62%
COc1ccccc1OP(C)(=O)Nc1cccc(Br)c1 (stereo not given) | inactive: -5.04%
Cc1cc(C)cc(OP(C)(=O)Nc2ccc(C)cc2C)c1 (stereo not given) | inactive: -1.81%
CCOC(=O)c1ccc(NP(C)(=O)Oc2cc(C)cc(C)c2)cc1 (stereo not given) | inactive: -3.8%
Cc1cc(C)cc(OP(C)(=O)Nc2ccccn2)c1 (stereo not given) | inactive: -3.49%
CP(=O)(Nc1cccc(Br)c1)Oc1ccccc1 (stereo not given) | inactive: -11.2%
Cc1ccc(C)c(NP(C)(=O)Oc2ccccc2)c1 (stereo not given) | inactive: -0.29%
O=C(O)c1cccc(Nc2c([N+](=O)[O-])cc([N+](=O)[O-])cc2[N+](=O)[O-])c1 | inactive: -1.76%
CC1=NCCc2c1[nH]c1ccccc21.O=[N+]([O-])c1cc([N+](=O)[O-])c(O)c([N+](=O)[O-])c1 | inactive: -1.34%
O=[N+]([O-])c1cc([N+](=O)[O-])c(Nc2cccnc2)c([N+](=O)[O-])c1 | inactive: 3.56%
Cc1cccc(C)c1OP(C)(N)=O (stereo not given) | inactive: 0.44%
CC(C)(C)c1ccc(OP(C)(=O)Nc2ccc(SC(F)(F)F)cc2)cc1 (stereo not given) | inactive: -3.55%
O=[N+]([O-])c1ccc2c(c1)C=Nc1ccccc1O2 | inactive: 0.28%

SMILES | activation
CCOC(=O)c1ccc(NP(C)(=O)Oc2ccccc2)cc1 (stereo not given) | inactive: 2.28%
Cc1ccc(NP(C)(=O)Oc2ccccc2)c(C)c1 (stereo not given) | inactive: -2.98%
COc1ccccc1OP(C)(=O)Nc1ccc(C)cc1 (stereo not given) | inactive: -2.95%
COc1ccc(OP(C)(=O)Nc2cccc(F)c2)cc1 (stereo not given) | inactive: 2.67%
COc1ccccc1OP(C)(=O)Nc1cc(Cl)ccc1C (stereo not given) | inactive: -1.77%
Cc1cc(C)cc(OP(C)(N)=O)c1 (stereo not given) | inactive: 2.1%
COc1ccccc1-c1ccccn1.O=[N+]([O-])c1cc([N+](=O)[O-])c(O)c([N+](=O)[O-])c1 | inactive: 0.57%
CP(=O)(Oc1ccccc1)OC(c1ccccc1)C(F)(F)F (stereo not given) | inactive: -0.53%
CP(=O)(Nc1ccc(SC(F)(F)F)cc1)Oc1ccc(Cl)cc1 (stereo not given) | inactive: 3.55%
Cc1cccc(C)c1OP(C)(=O)Nc1ccc(SC(F)(F)F)cc1 (stereo not given) | inactive: 1.46%
Cc1cc(C)cc(OP(C)(=O)Nc2ccc(SC(F)(F)F)cc2)c1 (stereo not given) | inactive: -3.75%
CP(=O)(NC(=O)Nc1ccccc1)Oc1ccccc1 (stereo not given) | inactive: 3.56%
CCc1ccc(OP(C)(=O)N2CCN(c3ccc([N+](=O)[O-])cc3)CC2)cc1 (stereo not given) | inactive: -7.33%
CCOP(C)(=S)SCC(=O)NC(C)C(=O)O (stereo not given) | inactive: 1.61%
O=[N+]([O-])c1cc([N+](=O)[O-])c(O)c([N+](=O)[O-])c1.c1ccc(Oc2ccncc2)cc1 | inactive: 9.09%
CCOC(=O)c1ccc(NP(C)(=O)Oc2ccc(OC)cc2)cc1 (stereo not given) | inactive: 2.13%
CP(=O)(Nc1ccccn1)Oc1ccc(Cl)cc1 (stereo not given) | inactive: -1.73%
CP(=S)(Nn1cnnc1)Oc1ccccc1 (stereo not given) | inactive: 0.79%
COc1ccccc1OP(C)(=O)Nc1ccccc1 (stereo not given) | inactive: 0.06%
CP(=O)(Nc1ccccc1Br)Oc1ccccc1 (stereo not given) | inactive: -1.95%
